This experiment has as its target T1, Der p 1 (Dermatophagoides pteronyssinus, UniProt P08176).
T1 construct: from tissue; host or cells: spent culture medium of Dermatophagoides pteronyssinus (native HDM extract); ammonium sulfate precipitation, size exclusion, SBTI column, Resource Q
T1 sequence (P08176 99-320): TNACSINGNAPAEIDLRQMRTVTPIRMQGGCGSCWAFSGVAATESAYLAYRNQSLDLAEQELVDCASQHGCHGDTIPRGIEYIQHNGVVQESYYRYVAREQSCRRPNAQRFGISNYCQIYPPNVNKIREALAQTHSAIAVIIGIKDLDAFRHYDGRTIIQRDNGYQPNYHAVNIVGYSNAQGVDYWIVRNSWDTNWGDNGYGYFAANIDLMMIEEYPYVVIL
Briefly: biochemical. The settings on record: read-out: target potency (Ki). As for the experimental part: Assays were assembled in 96-well plate format using a PerkinElmer Multiprobe II Plus HTS EX robot (PerkinElmer, UK). […] Reactions were initiated by the addition of 10 μL Der p 1 dissolved in the reaction buffer at 2.5 μg/mL and followed at 30 °C by measurement of fluorescence (excitation/emission 330/420 nm) using either a Fusion Alpha-FP or Envision plate reader fitted with a temperature-controlled carrier (PerkinElmer, UK).
Inhibitor kinetics were analyzed from progress curves. For reversible inhibitors, IC50 values were calculated conventionally.

Where a name gives a salt, the structure may show the parent alone.

One may read the Ki as the dissociation constant of the complex between target and ligand, obtained from inhibition or displacement. Consider `CC(C)[C@H](NC(=O)[C@H](C)NC(=O)[C@@H](NC(=O)C1CC[N+](C)(C)CC1)C(C)(C)C)C(=O)C(=O)NCc1ccccc1` [Compound 2, 4-{(S)-1-[(S)-1-((S)-1-benzylaminooxalyl-2-methyl-propylcarbamoyl)-ethylcarbamoyl]-2,2-dimethyl-propylcarbamoyl}-1,1-dimethyl-piperidinium formate], for which the Ki was 1 nM.

The values are drawn from PMC9469500, “Targeting an Initiator Allergen Provides Durable and Expansive Protection against House Dust Mite Allergy” (ACS Pharmacology & Translational Science, 2022).
